Literature values as cited in patent US9987593B2, “Method for producing NOx storage-reduction catalyst” (TOYOTA JIDOSHA KABUSHIKI KAISHA, priority 2016, dated 2018).

| Substance | solubility in water (in words) |
| --- | --- |
| potassium tetranitroacridone | substantially insoluble in water |
| potassium tetranitrophenothiazine-9-oxide | substantially insoluble in water |
